In patent US6743609B1, “Linoleate isomerase” (Arkion Life Sciences LLC, priority 1997, dated 2004):

System: P. acnes ATCC 6919 linoleate isomerase
Experiment: Effect of cofactors, metals, chelators and sulfhydryl reagents on isomerase activity of crude soluble enzyme preparation
Assay type: biochemical, Propionibacterium acnes
Details: 60 minute assays
Experimental: A number of possible cofactors were tested for their effect on isomerase activity, including NAD, NADH, NADP, NADPH, FAD, FMN, ADP, ATP and glutathione.
Generally, the isomerase was assayed using an endpoint assay after 30 to 60 minutes incubation at room temperature. FIG. 18 (time course assay at different linoleic acid levels) and FIG. 19 (end point assay at different linoleic acid levels) show the effect of increasing substrate concentration on formation of […].

## Nc1ncnc2c1ncn2[C@@H]1O[C@H](COP(=O)(O)OP(=O)(O)OP(=O)(O)O)[C@@H](O)[C@H]1O [ATP]
  effect of possible cofactor on isomerase activity: No significant effect
